# Assay results from patent US20220133727A1, “COMBINATION THERAPIES FOR USE IN TREATING CANCER” (Les Laboratoires Servier SAS, priority 2019, published 2022).
# Test system: ESX030 human primary esophageal cancer xenograft
# Settings: Group 4, 5.0 mg/kg Docetaxel alone, day 38
smiles,measurement,value
CC(=O)O[C@@]12CO[C@@H]1C[C@H](O)[C@@]1(C)C(=O)[C@H](O)C3=C(C)[C@@H](OC(=O)[C@H](O)[C@@H](NC(=O)OC(C)(C)C)c4ccccc4)C[C@@](O)([C@@H](OC(=O)c4ccccc4)[C@H]21)C3(C)C [Docetaxel],"Tumor volume, median",1310 mm^3
